Source: ChEMBL document CHEMBL1154630, “Discovery of colon tumor cell growth inhibitory agents through a combinatorial approach” (Eur J Med Chem, 2010)

Amino acid sequences for entries named in this document (tags omitted).
UniProt P11309, whole entry: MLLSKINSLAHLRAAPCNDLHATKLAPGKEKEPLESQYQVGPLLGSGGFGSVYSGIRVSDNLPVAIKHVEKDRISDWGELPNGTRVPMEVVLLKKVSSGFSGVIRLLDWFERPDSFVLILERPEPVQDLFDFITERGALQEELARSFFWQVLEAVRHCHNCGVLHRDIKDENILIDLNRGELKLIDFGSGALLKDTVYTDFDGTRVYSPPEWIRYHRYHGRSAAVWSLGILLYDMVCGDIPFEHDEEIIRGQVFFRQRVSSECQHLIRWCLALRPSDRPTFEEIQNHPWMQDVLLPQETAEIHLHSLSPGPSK

Biological target: Serine/threonine-protein kinase pim-1 (Homo sapiens, UniProt P11309)
Assay: Inhibition of PIM1

`N#Cc1c(-c2ccccc2)cc(-c2cc(Br)ccc2O)[nH]c1=O` gave an IC50 of 50 nmol.
